Results taken from US10442819B2, “Tricyclic compounds as inhibitors of mutant IDH enzymes” (Merck Sharp & Dohme Corp., priority 2014, dated 2019).

Chains of the proteins cited; added tags and fusions are not shown.
UniProt O75874, whole entry R132H: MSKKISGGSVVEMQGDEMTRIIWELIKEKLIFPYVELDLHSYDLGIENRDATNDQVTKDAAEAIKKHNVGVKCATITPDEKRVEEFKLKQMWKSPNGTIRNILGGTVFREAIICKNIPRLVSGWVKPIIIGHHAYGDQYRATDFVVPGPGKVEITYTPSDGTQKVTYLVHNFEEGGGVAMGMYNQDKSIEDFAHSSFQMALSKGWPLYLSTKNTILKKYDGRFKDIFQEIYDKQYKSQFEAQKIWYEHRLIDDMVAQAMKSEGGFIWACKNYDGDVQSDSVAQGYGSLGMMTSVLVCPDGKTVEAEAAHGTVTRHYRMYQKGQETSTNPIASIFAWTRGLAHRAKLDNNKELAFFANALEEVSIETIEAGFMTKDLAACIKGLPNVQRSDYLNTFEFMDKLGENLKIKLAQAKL

Target: R132H mutant IDH1 enzyme (Homo sapiens (Human), UniProt O75874, R132H)
Assay: R132H IDH1 Enzymatic Assay
Format: biochemical
Details: R132H mutant IDH1 enzyme 1.5 nM final; luminescence readout; read-out: IC50

Structure (SMILES) | IC50 [nM]
COC(C)(C)C1CC(C(=O)N2Cc3cccnc3Nc3ccc(N4CCOCC4)cc32)C1 (stereo not drawn) [Example 164, 6-{[3-(1-methoxy-1-methylethyl)cyclobutyl]carbonyl}-8-morpholin-4-yl-6,11-dihydro-5H-pyrido[2,3-b][1,5]benzodiazepine] | 1330
COC1CCC(C(=O)N2Cc3cccnc3Nc3ccc(N4CC[C@H](OC)C4)cc32)CC1 (stereo partly drawn) [Example 204, 6-[(4-methoxycyclohexyl)carbonyl]-8-[(3S)-3-methoxypyrrolidin-1-yl]-6,11-dihydro-5H-pyrido[2,3-b][1,5]benzodiazepine] | 732
C[C@H]1CC(F)(F)CCC1C(=O)N1Cc2cccnc2Nc2ccc(N3CCC(C#N)CC3)cc21 (mixture of isomers) [Example 176, Racemic trans 1-{6-[(4,4-difluoro-2-methylcyclohexyl)carbonyl]-6,11-dihydro-5H-pyrido[2,3-b][1,5]benzodiazepin-8-yl}piperidine-4-carbonitrile] | 286
CO[C@H]1CC[C@H](C(=O)N2Cc3cccnc3Nc3ccc(C(C)O)cc32)CC1 (stereo partly drawn) [Example 517, [8-(1-Hydroxyethyl)-5,11-dihydro-6H-pyrido[2,3-b][1,5]benzodiazepin-6-yl](trans-4-methoxycyclohexyl)methanone] | 822
COC1CCN(c2ccc3c(c2)N(C(=O)[C@H]2CC[C@H](OC)CC2)Cc2cccnc2N3)CC1(F)F (stereo partly drawn) [Example 210, 8-(3,3-difluoro-4-methoxypiperidin-1-yl)-6-[(trans-4-methoxycyclohexyl)carbonyl]-6,11-dihydro-5H-pyrido[2,3-b][1,5]benzodiazepine] | 250
CO[C@H]1CC[C@H](C(=O)N2Cc3cccnc3Nc3ccc(N4CCOC(C)(C)C4)cc32)CC1 [Example 289, 8-(2,2-dimethylmorpholin-4-yl)-6-[(trans-4-methoxycyclohexyl)carbonyl]-6,11-dihydro-5H-pyrido[2,3-b][1,5]benzodiazepine] | 498
CC(C)O[C@H]1CC[C@H](C(=O)N2Cc3cccnc3Nc3ccc(N4C5COCC4COC5)cc32)CC1 [Example 338, 8-(3,7-dioxa-9-azabicyclo[3.3.1]non-9-yl)-6-{[trans-4-(1-methylethoxy)cyclohexyl]car-bonyl}-6,11-dihydro-5H-pyrido[2,3-b][1,5]benzodiazepine] | 43
CO[C@H]1CC[C@H](C(=O)N2Cc3cccnc3Nc3ccc(N4CC(C)(C#N)C4)cc32)CC1 [Example 411, 1-{6-[(Trans-4-methoxycyclohexyl)carbonyl]-6,11-dihydro-5H-pyrido[2,3-b][1,5]benzodiazepin-8-yl}-3-methylazetidine-3-carbonitrile] | 618
COC(C)(C)[C@H]1CC[C@H](C(=O)N2Cc3cccnc3Nc3ccc(N4CCOCC4)cc32)CC1 [Example 89, 6-{[trans-4-(1-methoxy-1-methylethyl)cyclohexyl]-carbonyl}-8-morpholin-4-yl-6,11-dihydro-5H-pyrido[2,3-b][1,5]benzodiazepine] | 104
CO[C@H]1CC[C@H](C(=O)N2Cc3cccnc3Nc3ccc(N4CCOCC4C(C)C)cc32)CC1 (stereo partly drawn) [Example 286, 6-[(trans-4-methoxycyclohexyl)carbonyl]-8-[3-(1-methylethyl)morpholin-4-yl]-6,11-dihydro-5H-pyrido[2,3-b][1,5]benzodiazepine] | 223
CO[C@H]1CC[C@H](C(=O)N2Cc3cccnc3Nc3ccc(N4C5CCC4COC5)cc32)CC1 [Example 292, 6-[(trans-4-methoxycyclohexyl)carbonyl]-8-(3-oxa-8-azabicyclo[3.2.1]oct-8-yl)-6,11-dihydro-5H-pyrido[2,3-b][1,5]benzodiazepine] | 678
CO[C@H]1CC[C@H](C(=O)N2Cc3cccnc3Nc3ccc(N4CCn5cccc5C4)cc32)CC1 [Example 273, 8-(3,4-dihydropyrrolo[1,2-a]pyrazin-2(1H)-yl)-6-[(trans-4-methoxycyclohexyl)carbonyl]-6,11-dihydro-5H-pyrido[2,3-b][1,5]benzodiazepine] | 272
CO[C@H]1CC[C@H](C(=O)N2Cc3cccnc3Nc3ccc(-c4cnn5c4CCC5)cc32)CC1 [Example 371, 8-(5,6-dihydro-4H-pyrrolo[1,2-b]pyrazol-3-yl)-6-[(trans-4-methoxycyclohexyl)carbonyl]-6,11-dihydro-5H-pyrido[2,3-b][1,5]benzodiazepine] | 68
C[C@H](N[C@H]1CC[C@H](C(=O)N2Cc3cccnc3Nc3ccc(N4CCOCC4)cc32)CC1)C(F)(F)F [Example 458, trans-4-[(8-morpholin-4-yl-5,11-dihydro-6H-pyrido[2,3-b][1,5]benzodiazepin-6-yl)carbonyl]-N-[(1S)-2,2,2-trifluoro-1-methylethyl]cyclohexanamine] | 87
O=C([C@H]1CC[C@@H](N2CCC(F)(F)C2)CC1)N1Cc2cccnc2Nc2ccc(N3CCOCC3)cc21 [Example 475, 6-{[cis-4-(3,3-difluoropyrrolidin-1-yl)cyclohexyl]carbonyl}-8-morpholin-4-yl-6,11-dihydro-5H-pyrido[2,3-b][1,5]benzodiazepine] | 191
CCO[C@H]1CC[C@H](C(=O)N2Cc3cccnc3Nc3ccc(N4[C@@H]5CC[C@H]4C[C@@H](OC)C5)cc32)CC1 [Example 301, 6-[(trans-4-ethoxycyclohexyl)carbonyl]-8-[(3-endo)-3-methoxy-8-azabicyclo[3.2.1]oct-8-yl]-6,11-dihydro-5H-pyrido[2,3-b][1,5]benzodiazepine] | 116

Second part, the compound after the results:

IC50 [nM] | Structure (SMILES)
11 | CC(C)O[C@H]1CC[C@H](C(=O)N2Cc3cccnc3Nc3ccc(C4CCCOC4)cc32)CC1 (stereo partly drawn) [Example 374, 6-{[trans-4-(1-methylethoxy)cyclohexyl]carbonyl}-8-(tetrahydro-2H-pyran-3-yl)-6,11-dihydro-5H-pyrido[2,3-b][1,5]benzodiazepine]
15 | CC(C)O[C@H]1CC[C@H](C(=O)N2Cc3cccnc3Nc3ccc(-c4ccnn4C)cc32)OC1 [Example 141, ((2R,5S)-5-isopropoxytetrahydro-2H-pyran-2-yl)(8-(1-methyl-1H-pyrazol-5-yl)-5,11-dihydro-6H-benzo[b]pyrido[2,3-e][1,4]diazepin-6-yl)methanone]
40 | CO[C@H]1CC[C@@H](C(=O)N2Cc3cccnc3Nc3ccc(C4=CCC(C#N)CC4)cc32)CC1 (stereo partly drawn) [Example 359, 4-{6-[(cis-4-methoxycyclohexyl)carbonyl]-6,11-dihydro-5H-pyrido[2,3-b][1,5]benzodiazepin-8-yl}cyclohex-3-ene-1-carbonitrile]
36 | C[C@H](N[C@H]1CC[C@H](C(=O)N2Cc3cccnc3Nc3ccc([C@@H]4CCCOC4)cc32)CC1)C(F)(F)F (single isomer, unassigned) [Example 461]
39 | CC(C)O[C@H]1CC[C@H](C(=O)N2Cc3cccnc3Nc3ccc(N4CC5COCC(C4)O5)cc32)CC1 [Example 317, 8-(3,9-dioxa-7-azabicyclo[3.3.1]non-7-yl)-6-{[trans-4-(1-methylethoxy)cyclohexyl]car-bonyl}-6,11-dihydro-5H-pyrido[2,3-b][1,5]benzodiazepine]
37 | O=C([C@H]1CC[C@H](NC2(C(F)(F)F)CC2)CC1)N1Cc2cccnc2Nc2ccc(N3C[C@H]4C[C@@H]3CO4)cc21 [Example 303, trans-4-({8-[(1R,4R)-2-oxa-5-azabicyclo[2.2.1]hept-5-yl]-5,11-dihydro-6H-pyrido[2,3-b][1,5]benzodiazepin-6-yl}carbonyl)-N-[1-(trifluoromethyl)cyclopropyl] cyclohexanamine]
47 | CC(C)O[C@H]1CC[C@H](C(=O)N2Cc3cccnc3Nc3ccc(C4(O)COC4)cc32)CC1 [Example 512, [8-(3-hydroxyoxetan-3-yl)-5,11-dihydro-6H-pyrido[2,3-b][1,5]benzodiazepin-6-yl][trans-4-(propan-2-yloxy)cyclohexyl]methanone]
9 | O=C(N1Cc2cccnc2Nc2ccc(N3CC4CCC3CO4)cc21)C1(F)CCN(CC(F)(F)F)CC1 (stereo not drawn) [Example 344, 6-{[4-fluoro-1-(2,2,2-trifluoroethyl)piperidin-4-yl]carbonyl}-8-(2-oxa-5-azabicyclo[2.2.2]oct-5-yl)-6,11-dihydro-5H-pyrido[2,3-b][1,5]benzodiazepine]
46 | O=C([C@H]1CC[C@H](NC2(C(F)(F)F)CC2)CC1)N1Cc2cccnc2Nc2ccc(C3COCCO3)cc21 (stereo partly drawn) [Example 467, trans-4-({8-[-1,4-dioxan-2-yl]-5,11-dihydro-6H-pyrido[2,3-b][1,5]benzodiazepin-6-yl}carbonyl)-N-[1-(trifluoromethyl)cyclopropyl]-cyclohexanamine]
41 | COc1cnccc1-c1ccc2c(c1)N(C(=O)[C@H]1CC[C@H](OC)CC1)Cc1cccnc1N2 [Example 179, 6-[(trans-4-methoxycyclohexyl)carbonyl]-8-(3-methoxypyridin-4-yl)-6,11-dihydro-5H-pyrido[2,3-b][1,5]benzodiazepine]
7 | CC(C)O[C@H]1CCC(C(=O)N2Cc3cccnc3Nc3ccc(C4CCCOC4)cc32)OC1 (single isomer, unassigned) [Example 28]
59 | C[C@@H]1C[C@H](C)C[C@H](C(=O)N2Cc3cccnc3Nc3ccc(N4CCOCC4)cc32)C1 [Example 123, 6-{[(1s,3R,5S)-3,5-dimethylcyclohexyl]car-bonyl}-8-morpholin-4-yl-6,11-dihydro-5H-pyrido[2,3-b][1,5]benzodiazepine]
40 | O=C([C@H]1CC[C@H](NC2(C(F)(F)F)CCC2)CC1)N1Cc2cccnc2Nc2ccc(N3CCOCC3)cc21 [Example 469, trans-4-[(8-morpholin-4-yl-5,11-dihydro-6H-pyrido[2,3-b][1,5]benzodiazepin-6-yl)carbonyl]-N-[1-(trifluoromethyl)cyclobutyl]-cyclohexanamine]
44 | CO[C@H]1CC[C@H](C(=O)N2Cc3cccnc3Nc3ccc(-c4sc(C)nc4C)cc32)CC1 [Example 364, 8-(2,4-dimethyl-1,3-thiazol-5-yl)-6-[(trans-4-methoxycyclohexyl)carbonyl]-6,11-dihydro-5H-pyrido[2,3-b][1,5]benzodiazepine]
